Target: high affinity CNS nicotinic receptors
Assay type: binding, rat (Sprague-Dawley)

Row | Structure (SMILES) | Ki
1 | CNCC/C=C/c1ccc(C)nc1 [Sample No. 6, (E)-N-methyl-4-[3-(6-methylpyrindin)yl]-3-butene-1-amine] | 176 nM
2 | COc1cncc(/C=C/CCN)c1 [Sample No. 3, (E)-4-[3-(5-methoxypyridin)yl]-3-butene-1-amine monofumarate] | 22 nM

From patent publication US5824692A (priority 1995, dated 1998)
